Membrane permeability of cyclic peptides

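The data file gives no further conditions (lipid, pH, time, direction or concentration), and values from different papers need not be comparable. Other peptides of the study may be missing here. Peptides that the database sets to -10, its floor, are left out.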

PAMPA measures passive passage through an artificial lipid membrane.
Permeability is in 10^-6 cm/s, converted from the database's log10 values; higher is more permeable.

For CC(C)C[C@@H]1NC(=O)[C@H](C)NC(=O)[C@@H]2CCCN2C(=O)[C@H](Cc2ccccc2)NC(=O)CN(Cc2ccccc2)C(=O)[C@@H]2CCCN2C(=O)CN(Cc2ccccc2)C1=O the data give PAMPA 0.66 × 10^-6 cm/s. CC(C)C[C@@H]1C(=O)N2CCC[C@H]2C(=O)N[C@H](CC(C)C)C(=O)N[C@@H](Cc2ccccc2)C(=O)N2CCC[C@H]2C(=O)N(C)[C@H](C)C(=O)N(Cc2ccccc2)CC(=O)N1C is reported with PAMPA 2.8 × 10^-6 cm/s. Listed for CC(C)C[C@@H]1C(=O)N[C@@H](Cc2ccccc2)C(=O)N2CCC[C@@H]2C(=O)N[C@@H](Cc2ccccc2)CC(=O)N(C)[C@@H](CC(C)C)C(=O)N(C)[C@@H](CC(C)C)C(=O)N2CCC[C@H]2C(=O)N1C: PAMPA 6.3 × 10^-6 cm/s. The entry for CC(C)C[C@@H]1C(=O)N(C)[C@@H](CC(C)C)C(=O)N2CCC[C@H]2C(=O)N(C)[C@H](CC(C)C)C(=O)N[C@@H](Cc2ccccc2)C(=O)N2CCC[C@H]2C(=O)N[C@@H](C)C(=O)N1C lists PAMPA 2.4 × 10^-6 cm/s. The entry for CC(C)C[C@@H]1NC(=O)[C@H]2CCCN2C(=O)CN(Cc2ccccc2)C(=O)[C@@H](CC(C)C)N(C)C(=O)[C@H](C)N(C)C(=O)[C@H]2CCCN2C(=O)[C@H](Cc2ccccc2)NC1=O lists PAMPA 0.68 × 10^-6 cm/s. Listed for CC(C)C[C@H]1NC(=O)[C@@H](C)N(C)C(=O)[C@H](Cc2ccccc2)NC(=O)[C@@H](CC(C)C)NC(=O)[C@@H]2CCCN2C(=O)C[C@H](Cc2ccccc2)NC1=O: PAMPA 5.5 × 10^-6 cm/s. For CC(C)C[C@@H]1NC(=O)[C@H]2CCCN2C(=O)[C@H](CC(C)C)N(C)C(=O)[C@@H](CC(C)C)NC(=O)C[C@H](Cc2ccccc2)NC(=O)[C@H]2CCCN2C(=O)[C@H](Cc2ccccc2)NC1=O the data give PAMPA 2 × 10^-6 cm/s.

CC(C)C[C@@H]1C(=O)N(C)[C@@H](CC(C)C)C(=O)N2CCC[C@@H]2C(=O)N(Cc2ccccc2)CC(=O)N[C@@H](Cc2ccccc2)C(=O)N[C@@H](C)C(=O)N1C is reported with PAMPA 5.2 × 10^-6 cm/s. CCCN1CC(=O)N(C)[C@H](CC(C)C)C(=O)N[C@H](CC(C)C)C(=O)N2CCC[C@H]2C(=O)N(C)[C@H](CC(C)C)C(=O)N[C@@H](Cc2ccccc2)C(=O)N2CCC[C@H]2C1=O has PAMPA 9.1 × 10^-6 cm/s. For CCCN1CC(=O)N(Cc2ccccc2)CC(=O)N(C)[C@@H](CC(C)C)C(=O)N2CCC[C@@H]2C(=O)N[C@H](CC(C)C)C(=O)N[C@@H](Cc2ccccc2)C(=O)N2CCC[C@H]2C1=O the data give PAMPA 0.76 × 10^-6 cm/s. CC(C)C[C@@H]1NC(=O)[C@H]2CCCN2C(=O)[C@H](CC(C)C)NC(=O)[C@H](CC(C)C)N(C)C(=O)[C@H](C)N(C)C(=O)[C@H](Cc2ccccc2)NC1=O is reported with PAMPA 5.1 × 10^-6 cm/s. The entry for CC(C)C[C@H]1NC(=O)[C@@H]2CCCN2C(=O)C[C@H](Cc2ccccc2)NC(=O)[C@H](CC(C)C)N(C)C(=O)[C@H](C)NC(=O)[C@@H]2CCCN2C(=O)[C@H](Cc2ccccc2)NC1=O lists PAMPA 0.38 × 10^-6 cm/s. CC(C)C[C@@H]1NC(=O)[C@H](C)NC(=O)[C@H](Cc2ccccc2)NC(=O)CN(Cc2ccccc2)C(=O)[C@@H]2CCCN2C(=O)[C@H](CC(C)C)NC1=O is reported with PAMPA 1.4 × 10^-6 cm/s. The entry for CCCN1CC(=O)N[C@H](CC(C)C)C(=O)N[C@H](CC(C)C)C(=O)N2CCC[C@H]2C(=O)N(Cc2ccccc2)CC(=O)N[C@@H](Cc2ccccc2)C(=O)N2CCC[C@@H]2C1=O lists PAMPA 1 × 10^-6 cm/s.

The entry for CC(C)C[C@H]1NC(=O)[C@H]2CCCN2C(=O)[C@H](CC(C)C)N(C)C(=O)CN(Cc2ccccc2)C(=O)[C@@H](C)N(C)C(=O)[C@@H]2CCCN2C(=O)[C@H](Cc2ccccc2)NC1=O lists PAMPA 3.8 × 10^-6 cm/s. CC(C)C[C@@H]1C(=O)N[C@@H](Cc2ccccc2)C(=O)N2CCC[C@@H]2C(=O)N[C@@H](C)C(=O)N[C@H](CC(C)C)C(=O)N(C)[C@H](CC(C)C)C(=O)N2CCC[C@@H]2C(=O)N1C is reported with PAMPA 0.66 × 10^-6 cm/s. The entry for CCCN1CC(=O)N(C)[C@H](CC(C)C)C(=O)N(C)[C@H](CC(C)C)C(=O)N2CCC[C@@H]2C(=O)N[C@@H](CC(C)C)C(=O)N[C@@H](Cc2ccccc2)C(=O)N2CCC[C@@H]2C1=O lists PAMPA 2.8 × 10^-6 cm/s. CC(C)C[C@@H]1NC(=O)[C@H](CC(C)C)N(C)C(=O)[C@H](C)NC(=O)[C@H](Cc2ccccc2)NC(=O)[C@H](CC(C)C)N(C)C(=O)[C@H]2CCCN2C1=O has PAMPA 6.8 × 10^-6 cm/s. CC(C)C[C@@H]1NC(=O)[C@@H](C)N(C)C(=O)[C@H](Cc2ccccc2)NC(=O)[C@@H](CC(C)C)N(C)C(=O)[C@@H]2CCCN2C(=O)[C@@H](CC(C)C)NC1=O has PAMPA 6.5 × 10^-6 cm/s. Listed for CC(C)C[C@@H]1NC(=O)[C@H](C)NC(=O)[C@@H]2CCCN2C(=O)[C@H](Cc2ccccc2)NC(=O)CN(Cc2ccccc2)C(=O)[C@@H]2CCCN2C(=O)[C@H](CC(C)C)NC1=O: PAMPA 2.5 × 10^-6 cm/s. The entry for CC(C)C[C@@H]1NC(=O)[C@@H](CC(C)C)NC(=O)[C@H](C)NC(=O)[C@H](Cc2ccccc2)NC(=O)[C@@H](CC(C)C)N(C)C(=O)[C@@H]2CCCN2C1=O lists PAMPA 1.1 × 10^-6 cm/s.

Listed for CC(C)C[C@H]1NC(=O)[C@H](C)N(C)C(=O)[C@H]2CCCN2C(=O)[C@H](Cc2ccccc2)NC(=O)CN(Cc2ccccc2)C(=O)[C@@H]2CCCN2C(=O)CN(Cc2ccccc2)C1=O: PAMPA 1.3 × 10^-6 cm/s. CC(C)C[C@H]1NC(=O)[C@H]2CCCN2C(=O)[C@@H](CC(C)C)NC(=O)[C@H](CC(C)C)N(C)C(=O)[C@@H](C)NC(=O)[C@H](Cc2ccccc2)NC1=O is reported with PAMPA 3.2 × 10^-6 cm/s.

Again, the 3 entries with the lowest PAMPA:

CC(C)C[C@H]1NC(=O)[C@@H]2CCCN2C(=O)C[C@H](Cc2ccccc2)NC(=O)[C@H](CC(C)C)N(C)C(=O)[C@H](C)NC(=O)[C@@H]2CCCN2C(=O)[C@H](Cc2ccccc2)NC1=O is reported with PAMPA 0.38 × 10^-6 cm/s.
CC(C)C[C@@H]1NC(=O)[C@H](C)NC(=O)[C@@H]2CCCN2C(=O)[C@H](Cc2ccccc2)NC(=O)CN(Cc2ccccc2)C(=O)[C@@H]2CCCN2C(=O)CN(Cc2ccccc2)C1=O is reported with PAMPA 0.66 × 10^-6 cm/s.
CC(C)C[C@@H]1C(=O)N[C@@H](Cc2ccccc2)C(=O)N2CCC[C@@H]2C(=O)N[C@@H](C)C(=O)N[C@H](CC(C)C)C(=O)N(C)[C@H](CC(C)C)C(=O)N2CCC[C@@H]2C(=O)N1C is reported with PAMPA 0.66 × 10^-6 cm/s.

Data: CycPeptMPDB; original report Townsend et al. 2020, doi:10.26434/chemrxiv.13335941.v1.